{"source": "PubChem BioAssay AID1236", "about": "(Emory University Molecular Libraries Screening Center, 2008)", "note": "This is a selection; strong and weak results do not stand in their true shares. The source made the active and inactive calls.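 How the source made its calls: active means inhibition above about 50% (limit read from the data); inactive means the rest.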"}
{"system": "calpain II (m-calpain), Sus scrofa", "experiment": "m-calpain protease activity blockers – biochemical, fluorogenic peptide substrate, 1536-well, primary screen (AID 1236)", "settings": "purified calpain II, 30 min, at 16 µM, stronger effect = higher value"}
{"smiles": "COc1ccc(NC2CCN(CCc3ccccc3)CC2)c(OC)c1", "inhibition": "inactive: 23.9%"}
{"smiles": "CCOc1ccc(C)cc1CN(CCCl)CCCl", "inhibition": "inactive: 3.36%"}
{"smiles": "Cc1ccc(OCC(C)C)c(CN(CCCl)CCCl)c1", "inhibition": "inactive: 23.4%"}
{"smiles": "COc1ccc(C(=O)NCC2(N3CCCCC3)CCCCC2)c(OC)c1OC", "inhibition": "inactive: 0.42%"}
{"smiles": "O=C(OC1CN2CCC1CC2)C1c2ccccc2Oc2ccccc21", "note": "(centres undefined)", "inhibition": "inactive: 17.6%"}
{"smiles": "N#CC1(Nc2ccccc2)CCN(Cc2ccccc2)CC1", "inhibition": "inactive: 4.91%"}
{"smiles": "CCOC(=O)N1CCC(Nc2ccc(OC)cc2)CC1", "inhibition": "inactive: 11.9%"}
{"smiles": "O=C(NCC1(N2CCOCC2)CCCCC1)c1cc2ccccc2o1", "inhibition": "inactive: -9.59%"}
{"smiles": "CC(C)c1ccc(NC2CCN(C(=O)OC(C)(C)C)CC2)cc1", "inhibition": "inactive: 7.52%"}
{"smiles": "CN(C)c1cccc(C(=O)NCC2(N3CCCCC3)CCCCC2)c1", "inhibition": "inactive: -43%"}
{"smiles": "COc1ccc(CN(CCCl)CCCl)cc1Cl", "inhibition": "inactive: -35.6%"}
{"smiles": "N#CC1(Nc2ccccc2)CCN(CCc2ccccc2)CC1", "inhibition": "inactive: -18.7%"}
{"smiles": "O=C(NCC1(N2CCCCC2)CCCCC1)c1cccc([N+](=O)[O-])c1", "inhibition": "inactive: -17.7%"}
{"smiles": "O=C(NCC1(N2CCOCC2)CCCCC1)c1cc(=O)[nH]c2ccccc12", "inhibition": "inactive: 16.4%"}
{"smiles": "CN1CCN(CCOC(=O)C(O)(c2ccccc2)c2ccccc2)CC1", "inhibition": "inactive: -7.12%"}
{"smiles": "COc1ccc(NC2CCN(C(=O)OC(C)(C)C)CC2)cc1", "inhibition": "inactive: 14.7%"}
{"smiles": "N#Cc1ccc(C(=O)NCC2(N3CCCCC3)CCCCC2)cc1", "inhibition": "inactive: -10.5%"}
{"smiles": "c1ccc(CN2CCC(Nc3ccccc3)CC2)cc1", "inhibition": "inactive: 0.74%"}
{"smiles": "COc1ccc(C(=O)NCC2(N3CCOCC3)CCCCC2)cc1OC", "inhibition": "inactive: -16.1%"}
{"smiles": "O=C(OC1CN2CCC1CC2)C1c2ccccc2C=Cc2ccccc21", "note": "(centres undefined)", "inhibition": "inactive: -13.9%"}
{"smiles": "N/C(=N\\O)c1c(N)no[n+]1[O-]", "inhibition": "inactive: -12.6%"}
{"smiles": "CC(C)(C)OC(=O)N1CCC(Nc2ccccc2)CC1", "inhibition": "inactive: 23.1%"}
{"smiles": "CCOc1ncccc1C(=O)NCC1(N2CCOCC2)CCCCC1", "inhibition": "inactive: 11.8%"}
{"smiles": "CCCOc1ccc(C)cc1CN(CCCl)CCCl", "inhibition": "inactive: -13.4%"}
{"smiles": "COc1cc(OC)cc(C(=O)NCC2(N3CCOCC3)CCCCC2)c1", "inhibition": "inactive: -3.04%"}
{"smiles": "CCC(CO)(C(=O)OC1CN2CCC1CC2)c1ccccc1", "note": "(centres undefined)", "inhibition": "inactive: 0.19%"}
{"smiles": "Fc1ccccc1NC1CCN(Cc2ccccc2)CC1", "inhibition": "inactive: -7.13%"}
{"smiles": "CN(C)c1ccc(C(=O)NCC2(N3CCCCC3)CCCCC2)cc1", "inhibition": "inactive: -20.3%"}
{"smiles": "CCN1CCC(Nc2cccc(F)c2)CC1", "inhibition": "inactive: 13.5%"}
